Measurements as given in ChEMBL document CHEMBL1128362, “Structure-activity relationships of 9-alkyladenine and ribose-modified adenosine derivatives at rat A3 adenosine receptors” (J Med Chem, 1995).

Amino acid sequences for entries named in this document (tags omitted).
UniProt P25099, whole entry, looked up: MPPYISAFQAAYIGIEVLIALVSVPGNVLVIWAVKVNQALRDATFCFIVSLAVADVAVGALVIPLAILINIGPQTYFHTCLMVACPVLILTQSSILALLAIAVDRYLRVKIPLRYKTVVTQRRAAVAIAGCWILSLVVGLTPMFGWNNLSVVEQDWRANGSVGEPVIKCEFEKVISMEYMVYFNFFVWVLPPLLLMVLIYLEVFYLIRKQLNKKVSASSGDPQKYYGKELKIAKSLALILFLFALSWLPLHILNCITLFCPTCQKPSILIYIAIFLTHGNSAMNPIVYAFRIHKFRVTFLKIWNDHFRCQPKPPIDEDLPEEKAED
UniProt P28647, whole entry, looked up: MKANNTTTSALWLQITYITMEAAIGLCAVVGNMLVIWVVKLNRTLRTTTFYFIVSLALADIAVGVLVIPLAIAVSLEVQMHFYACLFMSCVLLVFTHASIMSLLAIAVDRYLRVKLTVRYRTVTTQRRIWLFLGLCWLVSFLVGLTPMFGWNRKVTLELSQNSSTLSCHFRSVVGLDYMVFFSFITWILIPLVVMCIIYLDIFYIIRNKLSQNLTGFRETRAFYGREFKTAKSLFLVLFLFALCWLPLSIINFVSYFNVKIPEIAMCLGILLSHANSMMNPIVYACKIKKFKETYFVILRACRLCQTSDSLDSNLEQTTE
UniProt P30543, whole entry, looked up: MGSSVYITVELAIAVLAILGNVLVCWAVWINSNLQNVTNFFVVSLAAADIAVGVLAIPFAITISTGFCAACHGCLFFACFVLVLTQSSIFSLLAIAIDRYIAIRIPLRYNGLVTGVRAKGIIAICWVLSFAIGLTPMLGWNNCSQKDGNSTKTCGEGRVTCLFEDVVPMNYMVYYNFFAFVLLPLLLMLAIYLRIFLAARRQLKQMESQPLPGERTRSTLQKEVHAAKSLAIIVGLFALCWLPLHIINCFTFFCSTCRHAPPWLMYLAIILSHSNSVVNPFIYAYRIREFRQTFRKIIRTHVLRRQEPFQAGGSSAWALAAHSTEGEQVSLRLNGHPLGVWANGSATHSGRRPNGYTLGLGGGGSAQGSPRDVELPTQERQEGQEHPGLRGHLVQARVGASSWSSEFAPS

Key:
[1] = target: Adenosine receptors; A1 & A3 (Rattus norvegicus) (UniProt P25099+P28647); test: Ratio of the binding affinities against rat brain A1 and A3 receptors, KiA1/KiA3.
[2] = target: Adenosine receptor A2a and A3 (Rattus norvegicus) (UniProt P30543+P28647); test: Ratio of the binding affinities against rat brain A2a and A3 receptors, KiA2a/KiA3.
Adenosine receptor A2a = Adenosine receptor A2a (Rattus norvegicus, UniProt P30543); test: Binding affinity against adenosine A2A receptor from rat brain.
In short: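 Rat A1 receptors came from cerebral cortical membranes with [3H]R-PIA, and rat A2a receptors came from striatal membranes with [3H]CGS 21680. Membranes were pretreated with adenosine deaminase (2 U/mL) for 30 min at 37 °C. Nonspecific binding was defined by 2-chloroadenosine at 10 µM (A1) and 200 µM (A2a).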

Ratio [1]	Ratio [2]	Ki (Adenosine receptor A2a) [µM]	Structure (SMILES)
2	> 50		CNC(=O)[C@@H]1C[C@H](N)[C@H](n2cnc3c(NCc4cccc(I)c4)nc(Cl)nc32)O1
		90	Nc1nc(Cl)nc2c1ncn2[C@@H]1O[C@H](CO)[C@@H](O)[C@@H]1O
